Laboratory results from patent US9855286B2, “Pharmaceutical composition comprising (1r,4r)-6′-fluoro-N,N-di methyl-4-phenyl-4′,9′-dihydro-3′H-spiro[cyclohexane-1,1′-pyrano-[3,4,b]indol]-4-amine and a salicylic acid component” (dated 2018).
Where two headings read alike, the source gives them in different places.

System: male albino rats (Sprague Dawley)
Conditions: alone, dose 0.00464 mg/kg i.v., Mean ± SEM, n = 10

## CN(C)[C@]1(c2ccccc2)CC[C@]2(CC1)OCCc1c3cc(F)ccc3[nH]c12
30 min. post administration
  % MPE (Maximum possible effect): 12.2 ± 2.69 % MPE
60 min. post administration
  % MPE (Maximum possible effect): 10.6 ± 3.51 % MPE
90 min. post administration
  % MPE (Maximum possible effect): 2.88 ± 2.27 % MPE
